Values of other authors, collected in paper PMC12141447.

Amino acid sequences for entries named in this document (tags omitted). A change or cut given only in a name is not applied to a line headed by its entry.
UniProt O14490: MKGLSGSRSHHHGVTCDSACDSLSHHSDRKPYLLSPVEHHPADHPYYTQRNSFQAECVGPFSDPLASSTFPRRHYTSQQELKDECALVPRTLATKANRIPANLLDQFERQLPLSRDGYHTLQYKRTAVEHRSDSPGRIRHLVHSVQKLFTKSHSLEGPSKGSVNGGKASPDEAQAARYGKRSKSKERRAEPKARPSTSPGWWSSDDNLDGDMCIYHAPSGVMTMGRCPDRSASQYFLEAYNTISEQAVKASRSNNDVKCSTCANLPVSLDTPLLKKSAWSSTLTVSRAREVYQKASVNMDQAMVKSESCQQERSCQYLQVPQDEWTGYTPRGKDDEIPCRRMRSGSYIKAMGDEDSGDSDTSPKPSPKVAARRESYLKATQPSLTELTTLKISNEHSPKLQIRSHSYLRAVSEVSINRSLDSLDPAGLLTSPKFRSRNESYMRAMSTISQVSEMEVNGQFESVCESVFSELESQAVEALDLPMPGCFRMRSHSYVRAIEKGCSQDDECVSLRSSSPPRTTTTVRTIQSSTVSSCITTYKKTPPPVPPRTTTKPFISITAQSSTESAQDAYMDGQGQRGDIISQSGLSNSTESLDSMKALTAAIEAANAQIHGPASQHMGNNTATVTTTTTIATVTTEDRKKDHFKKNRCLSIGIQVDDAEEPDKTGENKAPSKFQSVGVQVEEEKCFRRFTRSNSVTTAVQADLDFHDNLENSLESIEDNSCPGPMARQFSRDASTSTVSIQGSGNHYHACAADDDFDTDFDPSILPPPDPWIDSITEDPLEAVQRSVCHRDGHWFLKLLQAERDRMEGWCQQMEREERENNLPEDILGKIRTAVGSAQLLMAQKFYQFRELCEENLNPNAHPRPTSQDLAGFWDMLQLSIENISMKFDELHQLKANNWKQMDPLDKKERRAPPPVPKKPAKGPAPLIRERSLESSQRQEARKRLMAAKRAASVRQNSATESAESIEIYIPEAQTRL
UniProt P78352, whole entry: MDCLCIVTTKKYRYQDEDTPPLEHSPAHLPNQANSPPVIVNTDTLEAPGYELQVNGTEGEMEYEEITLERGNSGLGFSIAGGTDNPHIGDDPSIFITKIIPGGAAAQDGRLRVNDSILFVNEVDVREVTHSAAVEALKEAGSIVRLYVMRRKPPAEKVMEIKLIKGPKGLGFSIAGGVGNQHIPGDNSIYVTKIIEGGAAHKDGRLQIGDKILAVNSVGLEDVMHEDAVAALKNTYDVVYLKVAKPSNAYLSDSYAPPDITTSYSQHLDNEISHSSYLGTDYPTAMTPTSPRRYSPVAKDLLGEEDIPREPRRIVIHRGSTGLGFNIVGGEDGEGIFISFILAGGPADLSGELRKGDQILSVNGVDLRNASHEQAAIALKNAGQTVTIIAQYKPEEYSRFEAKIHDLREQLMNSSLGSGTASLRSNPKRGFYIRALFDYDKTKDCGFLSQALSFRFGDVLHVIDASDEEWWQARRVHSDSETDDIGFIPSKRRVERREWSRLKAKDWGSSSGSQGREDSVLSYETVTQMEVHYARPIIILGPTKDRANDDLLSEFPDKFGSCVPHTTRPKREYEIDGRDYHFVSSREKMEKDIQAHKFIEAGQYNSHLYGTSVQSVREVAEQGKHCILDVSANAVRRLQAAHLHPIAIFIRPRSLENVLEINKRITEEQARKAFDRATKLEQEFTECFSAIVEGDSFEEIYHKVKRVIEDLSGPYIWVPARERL

Target: GKAP (UniProt O14490)

- pKd: 3.75
Substance: PSD-95 (from UniProt P78352)

pKd: −log10 of the molar value.
